This is an account of results in patent US20040224988A1, “Dosage forms and methods of treatment using VEGFR inhibitors” (Agouron Pharmaceuticals, Inc., priority 2003, published 2004).

One assay relates to LLC tumor model. The assay is described as follows: Lewis Lung carcinoma (LLC) tumor model. The format is in vivo, mice. The settings on record: N=3.
The next assay relates to U87MG cells. To be noted: on matrix protein fibronectin.
The test system of another assay is MV522 xenograft model. The settings on record: minimum of 4-hour daily exposure.

With `CNC(=O)c1ccccc1Sc1ccc2c(/C=C/c3ccccn3)n[nH]c2c1` [Compound 1, 6-[2-(methylcarbamoyl)phenylsulfanyl]-3-E-[2-(pyridin-2-yl)ethenyl]indazole], in the assay with LLC tumor model, the “biologically active concentration (BAC), plasma concentration for 90% of maximum growth inhibition” value is on record as 55±17 ng/mL and the “minimal efficacious concentration (MEC), plasma concentration for 50% maximum growth inhibition” value came out at 28 ± 11 ng/mL. For the same molecule, the “PDGF BB induced cancer cell migration” value with U87MG cells is “inhibiting PDGF BB induced cancer cell migration”. The “plasma concentration necessary to achieve a 90% tumor growth inhibition” value in the assay with MV522 xenograft model was 40 to 60 ng/mL.
